How the values were obtained:
[1] = target: ^chaducanumab (murine chimeric IgG2a/kappa version of aducanumab) (human | murine); assay: ELISA; competition: oligomeric Aβ1-42 coated at 2.5 μg/mL; 0.4 nM antibody added with serially diluted monomeric Aβ1-40, 2 h at room temperature; HRP anti-mouse detection
Aβ_(1-28) peptide = assay: SPR

Substance | IC50 [1] [nM] | Kd (Aβ_(1-28) peptide) [nM] | koff (Aβ_(1-28) peptide) [s⁻¹]
monomeric Aβ_(1-40) peptide | > 1000 |  | 
3D6 |  | 3.5 | 0.0011
